# Test results from patent US4851209A, “Diagnostic procedures using radio labeled sucralfate and derivatives or precursors thereof” (The Regents of the University of California, priority 1985, dated 1989).
# Assay: gastric clearance of orally given labeled material in supine human volunteers (gamma camera)
# Format: in vivo
# Procedure: We have tested Tc-99m labeled potassium sucrose sulfate on two supine human volunteers. The tagged material was stable in a solution comprising one gram per 10 cc of normal saline. The solution was given orally as a 10 cc dose. […] The T1/2 of the labeled potassium sucrose sulfate is r22 minutes from the stomach vs. r90 minutes for radiolabeled sucralfate. The value of Tc-99m potassium sucrose sulfate vs. Tc99m sucralfate is that the residual of the former is less than that of Tc-99m sucralfate. […] A good analogy would be the stars at night vs. the stars during the day. The stars are there in both instances. However, the sky is so bright during the day that star-light is simply lost in the background. […] Radiolabeled potassium sucrose sulfate offers a substantial improvement as a radio-pharmaceutical over the use of radiolabeled sucralfate. The potassium salt used for imaging ulcers in Example III can be replaced by other cations compatible in the human body including alkali metal and alkaline earth metal cations such as sodium and calcium.
substance,measurement,setting,value
potassium sucrose sulfate [Tc-99m labeled potassium sucrose sulfate],labeled material left in the stomach at 90 minutes (in words),"oral, at 90 minutes",only a minimum
same,imaging background,vs radiolabeled sucralfate,background is reduced
